Results reported in patent US20120301897A1, “ACETAMINOPHEN-PROTEIN ADDUCT ASSAY DEVICE AND METHOD” (BOARD OF TRUSTEES OF THE UNIVERSITY OF ARKANSAS, priority 2008, published 2012).

Legend:
[1] = Pharmacokinetic analysis of APAP-protein adducts in serum of adolescents and children with APAP overdose (HPLC-EC assay)

For “3-(cystein-S-yl) APAP (3-Cys-A)-protein adducts [APAP-protein adducts]”, the “time adducts remained in blood after the APAP overdose” value (adults with ALF) was 12 days, the mean elimination half-life (serum, adult patients with ALF after APAP overdose, 20 patients) was 42 ± 5.04 h and the “mean ke (elimination rate constant)” value (serum, adult patients with ALF after APAP overdose, empiric Bayesian estimates, 20 patients with 4 consecutive daily samples) was 0.402 ± 0.05 day⁻¹. The “time adducts were present in blood after the overdose” value [1] was 9 days and the “mean (±SD) ke of adducts in serum” value ([1]; serum) was 0.486 ± 0.084 day⁻¹.
